## Binding of CDR-mutated scFvs to a peptide of the spike HR2 region

Target: peptide PDVDLGDISGINAS, taken from heptad repeat 2 (HR2) of SARS-CoV-2 spike.

Ab-14 is the parent antibody, in scFv form: VH, then three GGGGS repeats, then VL. The light chain is unchanged in all variants.
VH: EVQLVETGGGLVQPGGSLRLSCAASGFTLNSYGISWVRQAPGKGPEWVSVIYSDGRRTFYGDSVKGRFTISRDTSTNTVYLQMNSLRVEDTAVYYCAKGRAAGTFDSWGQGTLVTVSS
VL: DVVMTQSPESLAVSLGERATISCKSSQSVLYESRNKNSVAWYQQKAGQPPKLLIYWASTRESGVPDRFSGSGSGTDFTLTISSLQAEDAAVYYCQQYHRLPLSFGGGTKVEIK

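The parent was found by panning a naive human phage display library on the peptide. The variants were designed computationally from a first round of random CDR variants and then made and measured. Several design methods are mixed in this list. The scFvs were displayed on barcoded MATa yeast, the peptide on MATalpha yeast. Pairs that bind mate more often; barcode pairs of the diploids are counted by sequencing. Scores were corrected for input abundance and mapped to Kd with protein pairs of known affinity run in the same pool. Mating was done six times.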

Positions count from residue 1 of the parent VH; S31E puts E in place of S.
This list holds designs with at most six substitutions.
Affinities are written as log10 Kd with Kd in nM; a lower number is a better binder.
Averages over replicates are reported, and they cover detected replicates only.
"nd" means that the variant was in the library but no mating with the target was seen in any replicate; the authors take this as a sign of poor binding, and no number exists.
In the paper, a design with two or fewer of six values counts as a poor binder.
A sequence measured in both rounds can read differently, since the two assays cover different ranges.
Of ten entries with the parent sequence, four were seen in most replicates (averages 0.34 to 2.37), three in one and three in none, so single entries are noisy.
Some sequences occur more than once in the pool; their replicates are pooled.
Empty control strains, which show no peptide, gave a signal in 1% of pairings with all heavy chain designs; the median was 2.08 and 95% of these signals were weaker than 0.84. No background was subtracted. For each scFv, signals with the empty controls are counted beside the result.

S31E+R56I+D106V: nd (0 of 6 replicates; controls 0 of 18).
S63D+K65A+S107W: 0.75 (1 of 6 replicates; controls 0 of 18).
N30D+G61A+S63A+A101T: 0.45 (6 of 6 replicates; controls 0 of 18).
T28S+G61M+R100E: 1.30 (6 of 6 replicates; controls 0 of 18).
N30D+F59M+A101I: 1.54 (6 of 6 replicates; controls 0 of 18).
T28Q+G61A+R100N+A101V: 0.05 (6 of 6 replicates; controls 0 of 18).
S31D+G55E+G103L+T104F+D106I+S107Q: nd (0 of 6 replicates; controls 0 of 18).
S53A+S63D+R100E: -0.19 (6 of 6 replicates; controls 0 of 18).
T28G+S31E+G61H+R100K+A101T: -0.14 (6 of 6 replicates; controls 0 of 18).
T28D+R100K+A101T+S107D: 0.20 (6 of 6 replicates; controls 0 of 18).
T28V+G61A+R100K+A101V: 1.04 (6 of 6 replicates; controls 0 of 18).
T28N+G61A+A101M: 0.62 (4 of 6 replicates; controls 0 of 18).
T28S+S31E+S107F: 0.95 (6 of 6 replicates; controls 0 of 18).
S31E+G61S+D106M: nd (0 of 6 replicates; controls 0 of 18).
T28D+S63N+A101E: 0.49 (6 of 6 replicates; controls 0 of 18).
L29P: 1.28 (4 of 24 replicates; controls 1 of 72).
L29N+N30E+S31Q+S53A+A101F: 1.13 (6 of 6 replicates; controls 1 of 18).
F27I+G61Q+F105S: nd (0 of 6 replicates; controls 0 of 18).
T28E+S31E+A101T+S107E: -0.02 (6 of 6 replicates; controls 0 of 18).
S31T+G61I+A101P+T104S: nd (0 of 6 replicates; controls 0 of 18).
F27D+S53A: 0.01 (1 of 6 replicates; controls 0 of 18).
S107K: nd (0 of 6 replicates; controls 0 of 18).
T28D+S63A+S107I: 0.58 (6 of 6 replicates; controls 0 of 18).
T28E+N30L+G61I+A101N: 1.62 (6 of 6 replicates; controls 0 of 18).
S31D+F59Q: 0.62 (5 of 6 replicates; controls 0 of 18).
S53A+G61D+F105N+D106K: nd (0 of 6 replicates; controls 0 of 18).
F59S+G103A: nd (0 of 6 replicates; controls 0 of 18).
R56M+K65V+R100Q: nd (0 of 6 replicates; controls 0 of 18).
G26M+T28D+R100Q+A101V: 0.70 (6 of 6 replicates; controls 1 of 18).
T28D+G61Q+R100K+S107V: 1.65 (6 of 6 replicates; controls 0 of 18).
S31E+R100C+A101I+S107A: 0.66 (6 of 6 replicates; controls 0 of 18).
R100L+A102C: 0.97 (3 of 6 replicates; controls 0 of 18).
T28S+G61S+S63D+R100N: -0.10 (6 of 6 replicates; controls 0 of 18).
S31Q+Y32R+G61S+G99P+R100C+T104F: 0.47 (1 of 6 replicates; controls 0 of 18).

The closing 2 entries, repeated:

changes	mean log10 Kd (nM)	replicates with signal	control signals
T28S+G61S+S63D+R100N	-0.10	6 of 6	0 of 18
S31Q+Y32R+G61S+G99P+R100C+T104F	0.47	1 of 6	0 of 18

Reference: Li et al. 2023, doi:10.1038/s41467-023-39022-2. File: FLAb, binding data.